In this test the target is nitric oxide synthase (Mus musculus, UniProt P29477). Put plainly: NOS inhibition assay: nitric oxide (nitrite, Greiss reagent) production from PAM 212 keratinocytes stimulated with gamma interferon. The format is cell-based. Conditions: read-out: IC50, NOS inhibition (nitric oxide production), 100 U/ml gamma interferon, 72 hours, nitrite in medium.

Amino acid sequences for entries named in this document (tags omitted). A change or cut given only in a name is not applied to a line headed by its entry.
UniProt P29477: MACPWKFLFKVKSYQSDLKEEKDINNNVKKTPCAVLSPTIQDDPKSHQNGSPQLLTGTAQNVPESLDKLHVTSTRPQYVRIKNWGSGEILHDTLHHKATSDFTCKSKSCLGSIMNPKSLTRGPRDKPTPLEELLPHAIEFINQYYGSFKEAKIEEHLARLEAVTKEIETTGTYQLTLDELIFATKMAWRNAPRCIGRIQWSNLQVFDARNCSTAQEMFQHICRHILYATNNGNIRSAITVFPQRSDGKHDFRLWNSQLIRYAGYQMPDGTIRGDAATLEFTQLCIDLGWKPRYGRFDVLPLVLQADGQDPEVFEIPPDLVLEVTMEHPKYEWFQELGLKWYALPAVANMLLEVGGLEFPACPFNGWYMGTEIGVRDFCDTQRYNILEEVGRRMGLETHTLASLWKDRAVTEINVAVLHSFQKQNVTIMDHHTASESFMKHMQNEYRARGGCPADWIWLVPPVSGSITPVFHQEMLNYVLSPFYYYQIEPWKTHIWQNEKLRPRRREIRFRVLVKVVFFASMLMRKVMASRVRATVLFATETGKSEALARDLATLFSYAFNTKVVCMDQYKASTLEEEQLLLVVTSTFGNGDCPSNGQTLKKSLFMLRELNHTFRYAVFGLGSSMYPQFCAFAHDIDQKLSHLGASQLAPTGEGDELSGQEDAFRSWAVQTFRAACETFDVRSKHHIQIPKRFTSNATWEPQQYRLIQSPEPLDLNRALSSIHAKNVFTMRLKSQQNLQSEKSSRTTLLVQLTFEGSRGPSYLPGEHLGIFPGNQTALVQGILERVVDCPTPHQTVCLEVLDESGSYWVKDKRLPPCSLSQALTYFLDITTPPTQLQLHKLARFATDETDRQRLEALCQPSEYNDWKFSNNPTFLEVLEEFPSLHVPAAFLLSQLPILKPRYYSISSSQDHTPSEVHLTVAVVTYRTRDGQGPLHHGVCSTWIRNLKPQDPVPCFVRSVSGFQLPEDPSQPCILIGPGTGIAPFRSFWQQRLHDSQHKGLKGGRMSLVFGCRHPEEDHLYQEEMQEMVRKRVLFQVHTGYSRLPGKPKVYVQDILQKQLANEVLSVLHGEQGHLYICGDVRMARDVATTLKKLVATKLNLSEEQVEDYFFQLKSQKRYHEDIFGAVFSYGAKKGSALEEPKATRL

Some results are limits rather than exact numbers.

With `CC(CCCl)Sc1nnc(-c2cccs2)n1N` (stereo not shown), the IC50 was above 100 µM.

The values are drawn from patent US20020032325A1, “4-amino-3-mercapto-1,2,4-triazoles” (priority 1999, published 2002).
